# Reference: patent publication US4112073A, “Medicinal composition comprising adrenal cortical hormone and thyroid stimulating hormone releasing hormone” (Takeda Chemical Industries, Ltd., priority 1975, dated 1978)
# Assay: Relative clinical effect of ACH (dexamethasone equivalent)
# Text: The relative amounts of ACH and TSH-releasing hormones may be determined according to the particular dosage form, the disease to be treated and other factors. Generally speaking, the ratio is about 1 (dexamethasone equivalent): 0.05 to 5, advantageously 0.05 to 2, and especially 0.1 to 1. The preferred ratio in each dosage form is; in the case of injections, about 1 (dexamethasone equivalent): 0.05 to 1, advantageously 0.1 to 1; in the case of oral preparations, about 1 (dexamethasone equivalent): 1 to 5, advantageously 1 to 2; and in the case of topical preparations, infusions and implants, about 1 (dexamethasone equivalent): 0.5 to 5, advantageously 0.5 to 2. The `dexamethasone equivalent` is an index number representing the relative clinical effect of any ACH with the effect of dexamethasone being taken as unity.
smiles,measurement,value
"C[C@@H]1C[C@H]2[C@@H]3C[C@H](F)C4=CC(=O)C=C[C@]4(C)[C@@]3(F)[C@@H](O)C[C@]2(C)[C@@]1(O)C(=O)CO [Flumethasone, 6α, 9α-difluoro-16α-methylprednisolone]",Equivalent (dexamethasone equivalent),0.2
